This is a sample that favours compounds with a hit; in the whole collection about 3.7% have one here.
Nrf2 inh: Nrf2 pathway inhibition; hit rate 2.1% among 360,000; A549 ARE-Fluc reporter, luciferase luminescence, 18-24 h; Potency, µM (doses to about 46 µM), hits mostly inhibitors; AID 504444; also: nearly all actives have a fitted effect of over 60% in size
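Reporter: ARE-Fluc in A549. Exposure: 18-24 h, 37 °C, 5% CO2, 5% FBS OPTI-MEM. Readouts: fluorescent cytotoxicity (CellTiter-Fluor), then luminescent Nrf2 signal after BugLite.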
Nrf2 ARE act: Nrf2 pathway activation; AREc32 ARE-luciferase reporter (MCF7-derived line), luminescence, 24 h; Potency, µM (series often up to 46.1 µM), most hits filed as activators; hit rate 0.31% among 410,000; AID 624171; also: nearly all actives have a fitted effect of over 65% in size
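ARE-driven firefly luciferase activity in AREc32 cells measured after a 24 hr compound exposure at 37 deg C, using Steady-Glo reagent and a 30 min room-temperature hold.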
p53 reactivation: mutant p53 re-activation in reporter cells. H1299 p53-A138V BP100-luciferase reporter, luminescence, 24 h. Potency, µM (top dose mostly 92.2 µM), actives largely listed as activators. hit rate 0.063% among 320,000. AID 504706; also: nearly all actives have a fitted effect of over 45% in size
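H1299 (p53-null), stable ts p53-A138V + BP100-Luc; 1000 cells/well, Opti-MEM/10% FBS; cpd 4 pt, 1:5; 24 h, 37 deg C, 5% CO2; detection reagent 10 min RT; luminescence.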
miR-21 reporter: miR-21 reporter, rising signal; Potency, µM (titrated, usually from 38.3 µM); AID 2288; 340,000 tested, under 10 active; HeLa miR-21 FLuc reporter, luciferase, 48 h; active = well fitted rising curve with a large enough effect; inconclusive = small, poorly fitted or top-dose-only effect; inactive = no such curve, though single readings can be large or run the other way;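 note: miR-21 action dims this reporter so a rising signal means less miR-21 action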
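HeLa miR-21-FLuc reporter line, endogenous miR-21; 2000 cells/well in DMEM/10% FBS; compound titration up to ~40uM final, 48 h, 37 degree Celsius; luciferase detection reagent, 15 min lysis, CCD luminescence.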
A549 tox: counter-screen for Nrf2 inhibitors: cytotoxicity in A549 cells; A549 ARE-Fluc cells, CellTiter-Fluor viability, 18-24 h; Potency, µM (titrated, usually from 46 µM), actives largely listed as inhibitors; hit rate 0.16% among 390,000; AID 504648
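Cytotoxicity counterscreen: CellTiter-Fluor fluorescence was measured in A549 ARE_Fluc cells after 18-24 h of compound exposure in a concentration series. The subsequent BugLite luminescent read reports ARE-luciferase activity.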
ClpP mod: qHTS Assay for Activators of ClpP; ATP-dependent Clp protease proteolytic subunit (Bacillus subtilis (strain 168)), P80244; purified B. subtilis ClpP, FRET peptide cleavage, 20 min; Potency, µM (doses to about 57.5 µM); hit rate 1.9% among 340,000; AID 651965, 2013; active = well fitted falling curve with a large enough effect; inconclusive = small, poorly fitted or top-dose-only effect; inactive = no such curve, though single readings can be large or run the other way; also: the source files actives as falling curves though it sought activators and does not explain the sign; nearly all actives have a fitted effect of over 65% in size
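ClpP 10 microg/mL final, pH 8 Tris/KCl buffer with BSA, glycerol, Tween-20; compound pinned in; FRET-FV substrate; RT 20 min; Ex320/Em430; ΔFRET vs ADEP 5.8 microM, DMSO, no enzyme.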
A number is an active result. Unless noted, calls follow the shape of the dose curve; as a rule, active = well fitted curve in the direction sought with a large enough effect; inconclusive = small, poorly fitted or top-dose-only effect, or another doubt; inactive = no such curve, though single readings can be large; an effect the other way counts as inactive or inconclusive.

Sequences of proteins named here, by UniProt entry; tags and fusion partners are left off.
ATP-dependent Clp protease proteolytic subunit (Bacillus subtilis (strain 168)), P80244, UniProt P80244, whole entry, looked up: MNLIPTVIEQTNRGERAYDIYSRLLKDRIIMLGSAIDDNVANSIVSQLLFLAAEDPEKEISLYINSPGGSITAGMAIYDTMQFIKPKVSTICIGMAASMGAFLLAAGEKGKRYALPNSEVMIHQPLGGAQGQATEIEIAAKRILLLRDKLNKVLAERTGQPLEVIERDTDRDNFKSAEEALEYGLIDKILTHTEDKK

For OCC[C@@H]1C[C@H](O)[C@@H](O)[C@]2(OCc3cc(C(F)(F)F)ccc32)O1 the results were Nrf2 ARE act inactive and ClpP mod inactive.
`Cc1ccc(Oc2ccc(S(=O)(=O)N3CCOCC3)cc2C(N)=O)c(-n2nc3ccccc3n2)c1` gave Nrf2 ARE act inactive, p53 reactivation inactive, miR-21 reporter inactive, A549 tox inconclusive and ClpP mod 31.6µM.
Screening COc1ccccc1Oc1ccc(S(=O)(=O)N2CCOCC2)cc1S(=O)(=O)N1CCOCC1 returned Nrf2 inh inactive, Nrf2 ARE act inactive, p53 reactivation inactive, miR-21 reporter inactive, A549 tox inactive and ClpP mod inactive.
`CCCC(C)NC(=O)c1ccc(C2SCC(=O)N2Cc2ccco2)cc1` (stereo not given) gave Nrf2 inh inactive, Nrf2 ARE act inactive, p53 reactivation inactive, miR-21 reporter inactive, A549 tox inactive and ClpP mod 31.6µM.
For COCCNC(=O)c1ccc(C2SCC(=O)N2CCc2ccccc2)cc1 (stereo not given) the results were Nrf2 inh inactive, Nrf2 ARE act inactive, miR-21 reporter inactive, A549 tox inactive and ClpP mod inactive.
Screening CC1=CC(c2ccccc2)n2nc(N3C(=O)CCC3=O)nc2N1 (stereo not given) returned Nrf2 inh inactive, Nrf2 ARE act inactive, p53 reactivation inactive, miR-21 reporter inactive, A549 tox inactive and ClpP mod 28.2µM.
Screening CC1=CC(c2ccccc2)n2nc(N3C(=O)C4CC=CCC4C3=O)nc2N1 (stereo not given) returned Nrf2 inh inactive, Nrf2 ARE act inactive, p53 reactivation inactive, miR-21 reporter inactive, A549 tox inactive and ClpP mod 2.24µM.
For Cc1ccc(NC(=O)C(Cc2ccccc2)n2cccc2)c(C)c1 (stereo not given) the results were Nrf2 inh inactive, Nrf2 ARE act inactive, miR-21 reporter inactive, A549 tox inactive and ClpP mod inactive.
For O=C(NCc1cccnc1)c1ccc(NC(=O)c2cccc([N+](=O)[O-])c2)cc1 the results were Nrf2 inh 4.61µM, Nrf2 ARE act inactive, p53 reactivation inactive, miR-21 reporter inactive and A549 tox inactive.
For O=C(Nc1ccccc1)c1ccc(S(=O)(=O)NCc2cccnc2)cc1 the results were Nrf2 inh 13µM, Nrf2 ARE act inactive, p53 reactivation inactive, miR-21 reporter inactive, A549 tox inactive and ClpP mod inactive.
`O=C(CCc1ccc(S(=O)(=O)NCc2ccccc2)cc1)NCc1cccnc1` gave Nrf2 inh inconclusive, Nrf2 ARE act inactive, p53 reactivation inactive, miR-21 reporter inactive, A549 tox inactive and ClpP mod 14.1µM.
O=C(Nc1ccc(S(=O)(=O)NCCc2ccccc2)cc1)c1ccco1 was read as Nrf2 inh inactive, Nrf2 ARE act inactive, p53 reactivation inactive, miR-21 reporter inactive, A549 tox inactive and ClpP mod inactive.
CCNS(=O)(=O)c1ccc(CCC(=O)NCc2cccnc2)cc1 was read as Nrf2 inh inactive, Nrf2 ARE act inactive, miR-21 reporter inactive, A549 tox inactive and ClpP mod inactive.
For O=C(Nc1ccc(S(=O)(=O)NCCc2ccccc2)cc1)c1ccncc1 the results were Nrf2 inh 20.6µM, Nrf2 ARE act inactive, p53 reactivation inactive, miR-21 reporter inactive, A549 tox inactive and ClpP mod inactive.
Screening O=C(NCc1cccnc1)c1ccc([N+](=O)[O-])cc1 returned Nrf2 inh inactive, Nrf2 ARE act inactive, p53 reactivation inactive, miR-21 reporter inactive and A549 tox inactive.
Cc1ccc(Cc2c(C)nn(-c3nc(C)c(C(=O)N4CCCCC4C)s3)c2C)cc1 (stereo not given) was read as Nrf2 inh inactive, Nrf2 ARE act inactive, miR-21 reporter inactive, A549 tox inactive and ClpP mod inactive.
Screening COc1ccc(OC)c(S(=O)(=O)NCc2ccc3c(c2)CCN3C(=O)c2cccc(C)c2)c1 returned Nrf2 ARE act inactive, miR-21 reporter inactive, A549 tox inactive and ClpP mod inactive.

From PubChem BioAssay
